These are literature values, as cited in article PMC6121244, “Differences in Functional Expression of Connexin43 and NaV1.5 by Pan- and Class-Selective Histone Deacetylase Inhibition in Heart” (International Journal of Molecular Sciences, 2018).

In this series the test system is cardiac sodium current (INa) in NMVMs, primarily NaV1.5. Further details: method as in PMID 27638876. Particulars: previous experiments ref 13; cited from earlier work.

Take `O=C(CCCCCCC(=O)Nc1ccccc1)NO` [VOR, suberoylanilide hydroxamic acid]: the “positive shift in half activation voltage (V½)” value was “+2 to +8 mV” and the “shift in Vm-dependent gNa inactivation curve” value is “no shift”.
